Measured values as given in ChEMBL document CHEMBL1126552 (J Med Chem, 1993).

Protein sequences, listed by entry. Tags and fused reporters are not part of them.
UniProt P25099, whole entry: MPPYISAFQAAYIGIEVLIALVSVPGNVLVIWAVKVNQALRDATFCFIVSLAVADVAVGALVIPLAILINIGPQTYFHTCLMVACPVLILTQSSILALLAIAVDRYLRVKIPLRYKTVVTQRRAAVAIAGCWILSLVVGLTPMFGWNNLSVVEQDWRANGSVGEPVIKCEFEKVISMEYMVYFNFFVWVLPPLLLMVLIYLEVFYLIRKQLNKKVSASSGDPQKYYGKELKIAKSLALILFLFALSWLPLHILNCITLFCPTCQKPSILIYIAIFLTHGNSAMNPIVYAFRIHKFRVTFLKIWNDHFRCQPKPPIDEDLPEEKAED

Biological target: Adenosine receptor A1 (Rattus norvegicus, UniProt P25099)
Assay: Binding affinity towards adenosine A1 receptor was determined using radioligand [3H]CHA in whole rat brain membranes at 25 degree C
Type: cell membranes

Ki: 64.3 nM
SMILES: CCCn1c(=O)c2[nH]c(C3Cc4ccccc4C3)nc2n(CCC)c1=O
